This test addresses Estrogen receptor (Homo sapiens, UniProt P03372).

Chains of the proteins cited; added tags and fusions are not shown.
UniProt P03372, whole entry: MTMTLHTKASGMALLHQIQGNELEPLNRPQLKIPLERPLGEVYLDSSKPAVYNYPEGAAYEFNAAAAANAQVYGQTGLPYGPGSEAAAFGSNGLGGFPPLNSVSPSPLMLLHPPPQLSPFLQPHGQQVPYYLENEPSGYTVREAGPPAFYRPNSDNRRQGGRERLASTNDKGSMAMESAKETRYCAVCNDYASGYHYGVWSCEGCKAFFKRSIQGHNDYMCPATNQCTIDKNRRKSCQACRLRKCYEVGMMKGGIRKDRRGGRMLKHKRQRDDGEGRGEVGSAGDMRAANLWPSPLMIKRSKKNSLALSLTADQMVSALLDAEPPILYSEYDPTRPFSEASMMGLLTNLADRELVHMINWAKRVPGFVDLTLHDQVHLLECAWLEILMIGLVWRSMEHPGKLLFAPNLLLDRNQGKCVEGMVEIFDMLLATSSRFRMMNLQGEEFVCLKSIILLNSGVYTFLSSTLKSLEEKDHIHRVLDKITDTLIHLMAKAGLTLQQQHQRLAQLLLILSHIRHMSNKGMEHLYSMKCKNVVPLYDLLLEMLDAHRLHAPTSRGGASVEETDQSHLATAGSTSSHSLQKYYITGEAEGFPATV

SMILES strings stand for the structures.

The EC50 is the midpoint of the concentration-response curve. High values mean weaker potency, low ones greater potency. Take `Oc1cccc(CNc2nc(Cl)nc3scc(-c4ccccc4)c23)c1`: the EC50 was over 3 µM.
The compound `CC(C)c1csc2nc(Cl)nc(NCc3ccc(O)cc3)c12` came in with an EC50 of over 10 µM.
